Tests used:
Test in all cases: relative viability (nuclei count vs DMSO), 5 days (fraction); higher = more cells survive
XMD8-85 + Palbociclib = compound: CN1CCN(CC1)C2=CC(=C(C=C2)NC3=NC=C4C(=N3)N(C5=CC=CC=C5C(=O)N4C)C)OC [XMD8-85] + CC(=O)c1c(C)c2cnc(Nc3ccc(N4CCNCC4)cn3)nc2n(C2CCCC2)c1=O [Palbociclib] (partner 0.5 µM)
Procedure, shortened: (§1)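 Lung cancer cell lines in 1536-well plates were dosed by pin tool the day after seeding, either with one drug alone or with a fixed anchor-drug dose plus five library-drug doses (not always all listed) in √10 steps. After 5 days, cells were fixed and their nuclei stained in one step (final 0.05% Triton X-100, 1% formaldehyde, 1 ug/ml Hoechst), then counted on 4× images. Relative viability is the nuclei count in treated wells divided by that in vehicle wells. Values are medians of duplicate plates.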

XMD8-85 + AZD7762 = compound: CN1CCN(CC1)C2=CC(=C(C=C2)NC3=NC=C4C(=N3)N(C5=CC=CC=C5C(=O)N4C)C)OC [XMD8-85] + NC(=O)Nc1cc(-c2cccc(F)c2)sc1C(=O)N[C@H]1CCCNC1 [AZD7762] (partner 0.2 µM)
Procedure, shortened: as §1

XMD8-85 + Olaparib = compound: CN1CCN(CC1)C2=CC(=C(C=C2)NC3=NC=C4C(=N3)N(C5=CC=CC=C5C(=O)N4C)C)OC [XMD8-85] + O=C(c1cc(Cc2n[nH]c(=O)c3ccccc23)ccc1F)N1CCN(C(=O)C2CC2)CC1 [Olaparib] (partner 8 µM)
Procedure, shortened: as §1

XMD8-85 + Decitabine = compound: CN1CCN(CC1)C2=CC(=C(C=C2)NC3=NC=C4C(=N3)N(C5=CC=CC=C5C(=O)N4C)C)OC [XMD8-85] + Nc1ncn([C@H]2C[C@H](O)[C@@H](CO)O2)c(=O)n1 [Decitabine] (partner 2 µM); conditions: first compound 0.08 µM
Procedure, shortened: as §1

XMD8-85 + Pemetrexed = compound: CN1CCN(CC1)C2=CC(=C(C=C2)NC3=NC=C4C(=N3)N(C5=CC=CC=C5C(=O)N4C)C)OC [XMD8-85] + Nc1nc2[nH]cc(CCc3ccc(C(=O)N[C@@H](CCC(=O)O)C(=O)O)cc3)c2c(=O)[nH]1 [Pemetrexed] (partner 0.2 µM)
Procedure, shortened: as §1

XMD8-85 + Linsitinib = compound: CN1CCN(CC1)C2=CC(=C(C=C2)NC3=NC=C4C(=N3)N(C5=CC=CC=C5C(=O)N4C)C)OC [XMD8-85] + C[C@]1(O)C[C@@H](c2nc(-c3ccc4ccc(-c5ccccc5)nc4c3)c3c(N)nccn32)C1 [Linsitinib] (partner 1 µM)
Procedure, shortened: as §1

XMD8-85 + Lapatinib = compound: CN1CCN(CC1)C2=CC(=C(C=C2)NC3=NC=C4C(=N3)N(C5=CC=CC=C5C(=O)N4C)C)OC [XMD8-85] + CS(=O)(=O)CCNCc1ccc(-c2ccc3ncnc(Nc4ccc(OCc5cccc(F)c5)c(Cl)c4)c3c2)o1 [Lapatinib] (partner 2 µM)
Procedure, shortened: as §1

XMD8-85 + Vorinostat = compound: CN1CCN(CC1)C2=CC(=C(C=C2)NC3=NC=C4C(=N3)N(C5=CC=CC=C5C(=O)N4C)C)OC [XMD8-85] + O=C(CCCCCCC(=O)Nc1ccccc1)NO [Vorinostat] (partner 1 µM)
Procedure, shortened: as §1

XMD8-85 + Phenformin = compound: CN1CCN(CC1)C2=CC(=C(C=C2)NC3=NC=C4C(=N3)N(C5=CC=CC=C5C(=O)N4C)C)OC [XMD8-85] + N=C(N)NC(=N)NCCc1ccccc1 [Phenformin] (partner 250 µM)
Procedure, shortened: as §1

XMD8-85 + Alpelisib = compound: CN1CCN(CC1)C2=CC(=C(C=C2)NC3=NC=C4C(=N3)N(C5=CC=CC=C5C(=O)N4C)C)OC [XMD8-85] + Cc1nc(NC(=O)N2CCC[C@H]2C(N)=O)sc1-c1ccnc(C(C)(C)C(F)(F)F)c1 [Alpelisib] (partner 2 µM)
Procedure, shortened: as §1

XMD8-85 + Navitoclax = compound: CN1CCN(CC1)C2=CC(=C(C=C2)NC3=NC=C4C(=N3)N(C5=CC=CC=C5C(=O)N4C)C)OC [XMD8-85] + CC1(C)CCC(c2ccc(Cl)cc2)=C(CN2CCN(c3ccc(C(=O)NS(=O)(=O)c4ccc(N[C@H](CCN5CCOCC5)CSc5ccccc5)c(S(=O)(=O)C(F)(F)F)c4)cc3)CC2)C1 [Navitoclax] (partner 0.5 µM); conditions: first compound 0.8 µM
Procedure, shortened: as §1

XMD8-85 + Bortezomib = compound: CN1CCN(CC1)C2=CC(=C(C=C2)NC3=NC=C4C(=N3)N(C5=CC=CC=C5C(=O)N4C)C)OC [XMD8-85] + CC(C)C[C@H](NC(=O)[C@H](Cc1ccccc1)NC(=O)c1cnccn1)B(O)O [Bortezomib] (partner 0.002 µM)
Procedure, shortened: as §1

XMD8-85 + OSI-027 = compound: CN1CCN(CC1)C2=CC(=C(C=C2)NC3=NC=C4C(=N3)N(C5=CC=CC=C5C(=O)N4C)C)OC [XMD8-85] + COc1cccc2cc(-c3nc([C@H]4CC[C@H](C(=O)O)CC4)n4ncnc(N)c34)[nH]c12 [OSI-027] (partner 0.5 µM)
Procedure, shortened: as §1

XMD8-85 + Pictilisib = compound: CN1CCN(CC1)C2=CC(=C(C=C2)NC3=NC=C4C(=N3)N(C5=CC=CC=C5C(=O)N4C)C)OC [XMD8-85] + CS(=O)(=O)N1CCN(Cc2cc3nc(-c4cccc5[nH]ncc45)nc(N4CCOCC4)c3s2)CC1 [Pictilisib] (partner 1 µM); conditions: first compound 0.08 µM
Procedure, shortened: as §1

XMD8-85 + Crizotinib = compound: CN1CCN(CC1)C2=CC(=C(C=C2)NC3=NC=C4C(=N3)N(C5=CC=CC=C5C(=O)N4C)C)OC [XMD8-85] + C[C@@H](Oc1cc(-c2cnn(C3CCNCC3)c2)cnc1N)c1c(Cl)ccc(F)c1Cl [Crizotinib] (partner 1 µM); conditions: first compound 2.53 µM
Procedure, shortened: as §1

In the case of NCI-H1734, the relative viability (XMD8-85 + Palbociclib; first compound 0.8 µM) is reported as 0.535, the relative viability (XMD8-85 + AZD7762; first compound 8 µM) is reported as 0.547 and the relative viability (XMD8-85 + Olaparib; first compound 2.53 µM) is reported as 0.586. For the same cell line, the relative viability (XMD8-85 + Decitabine) was 0.524 and the relative viability (XMD8-85 + Pemetrexed; first compound 0.08 µM) was 0.386.
Cell Line NCI-H23 has a relative viability (XMD8-85 + Palbociclib; first compound 0.253 µM) of 0.632, a relative viability (XMD8-85 + Linsitinib; first compound 8 µM) of 0.413 and a relative viability (XMD8-85 + Pemetrexed; first compound 2.53 µM) of 0.625.
HCC-78 showed a relative viability (XMD8-85 + Lapatinib; first compound 0.253 µM) of 0.625.
LC-2-ad showed a relative viability (XMD8-85 + Vorinostat; first compound 0.253 µM) of 0.684, a relative viability (XMD8-85 + Phenformin; first compound 8 µM) of 0.372 and a relative viability (XMD8-85 + Alpelisib; first compound 8 µM) of 0.519. It also gave a relative viability (XMD8-85 + Navitoclax) of 0.613 and a relative viability (XMD8-85 + Bortezomib; first compound 8 µM) of 0.621.
Cell Line PC-14 has a relative viability (XMD8-85 + Vorinostat; first compound 2.53 µM) of 0.612 and a relative viability (XMD8-85 + OSI-027; first compound 2.53 µM) of 0.792.
Cell Line EBC-1 has a relative viability (XMD8-85 + Alpelisib; first compound 0.8 µM) of 0.827.
NCI-H1623 showed a relative viability (XMD8-85 + Phenformin; first compound 8 µM) of 0.487.
For NCI-H650, the relative viability (XMD8-85 + Lapatinib; first compound 8 µM) was 0.368, the relative viability (XMD8-85 + Pictilisib) was 0.879 and the relative viability (XMD8-85 + Phenformin; first compound 0.08 µM) was 0.511.
A-427 showed a relative viability (XMD8-85 + AZD7762; first compound 0.08 µM) of 0.709.
With NCI-H2126 the relative viability (XMD8-85 + Vorinostat; first compound 0.253 µM) was 0.835, the relative viability (XMD8-85 + Vorinostat; first compound 2.53 µM) was 0.871 and the relative viability (XMD8-85 + Linsitinib; first compound 0.253 µM) was 0.765.
IA-LM showed a relative viability (XMD8-85 + Crizotinib) of 0.541 and a relative viability (XMD8-85 + Bortezomib; first compound 2.53 µM) of 0.524.
Cell Line LCLC-103H has a relative viability (XMD8-85 + OSI-027; first compound 2.53 µM) of 0.425.
NCI-H1563 showed a relative viability (XMD8-85 + OSI-027; first compound 0.253 µM) of 0.828, a relative viability (XMD8-85 + Phenformin; first compound 2.53 µM) of 0.714 and a relative viability (XMD8-85 + Bortezomib; first compound 0.8 µM) of 0.842.
NCI-H1792 was tested, and the relative viability (XMD8-85 + AZD7762; first compound 0.253 µM) was 0.586.
NCI-H1666 showed a relative viability (XMD8-85 + Bortezomib; first compound 8 µM) of 0.753 and a relative viability (XMD8-85 + Olaparib; first compound 8 µM) of 0.685.
